# Measurements from patent US7291638B2, “3-amido-1,2-benzoisoxazole derivatives, process for preparation, and use thereof” (Dongwha Pharm. Ind. Co., Ltd., priority 2001, dated 2007).
# Assays:
# [1] = Pharmacokinetics test in rats (oral; plasma concentration of the compound of formula 2 by HPLC); type: in vivo, rat; settings: male Sprague-Dawley rats, vehicle DW (distilled water)
# Method: Male white rats (Sprague-Dawley) having body weights of 230˜260 g were used, 3˜4 rats were tested for a drug. Rats were fasted for 18˜20 hours before the drug was administered. The weight of rat was measured on the day of the experiment, the drug was administered orally to the rats according to dosage. After administration, rats were lightly anesthetized with diethyl ether. At […], 0.17, 0.5, 1.0, 1.5, 3.0, 5.0, 8.0 hours, the blood was collected from orbit vein of the rats by canulation. The collected blood was centrifuged, and the plasma was isolated. To determine concentration of the drug in plasma, HPLC was carried out as follows. Acetonitrile containing internal standard substance and the isolated plasma was mixed in the same amount, followed by centrifuging at 12,000 rpm. The supernatent was applied to HPLC, bioavailability of the compounds prepared in EXAMPLES was measured by analyzing a plasma concentration of the compound of formula 2.
# Pharmacokinetics parameters were measured by noncompartmental analysis, using WinNolin (ver. 1.0 Scientific Consulting Inc., USA). Time and maximum plasma concentration were registered by observed data, half life was calculated by linear regression analysis of terminal elimination phase.
# [2] = tested on: osteoporotic rat induced by ovariectomy; assay: Area ratio of trabecular bone in osteoporotic rats induced by ovariectomy; type: in vivo
# Method: To investigate therapeutic value of the osteoporosis to ovariectomized rats, change in the number of osteoclast cell and area ratio of trabecular bone (volume %) were measured.
# After 25 female white rats purchased from Chales River (Japan) were adjusted to a new environment, temperature of 20˜25° C. and relative humidity of 30˜35%. The 5 rats were positioned in a hutch, feed (Sam Yang corporation) and water were supplied to the rats. 20 rats had the operation for the removal of an ovary, 5 rats had the Sham operation for opening and suturing the abdominal cavity, used as Sham control group.
# Also, to compare drug efficacies of EXAMPLE and the compound of formula 2, 5 rats removed of the ovary were used as experimental group. The compound of formula 2 was dissolved in injectable distilled water and administered to the rats orally in an amount of 100 mg per kg for 40 days from 10 weeks after ovariectomy or Sham-operation, using oral sonde. 5 ml/kg was administered to the rats. To compare with the compound of formula 2, the compounds of EXAMPLE 1 or 2 were prepared in the same concentration as the compound of formula 2, dissolved in PEG 100 solution (PEG 100:tween 80:water=2:3:15) and administered through intramuscular injection. 5 ml/kg was administered to the rats.
# After administration terminated, the femur and tibia were removed from the animals, and fixed in 10% neutral formalin. The fixed tissue was decalcified in a solution (solution mixed 24.4% formic acid and 0.5 N sodium hydroxide) for 5 days, embedded in paraffin and 3˜4 μm sections were prepared. After that prepared section were dyed by hematoxylin-eosin.
# Also, the area ratio of trabecular bone was calculated at the section of the femur and tibia respectively, through the equation.
# [3] = osteoporotic rats induced by ovariectomy
# [4] = ovariectomized rats, PEG 100 solution, intramuscular injection, 40 days
substance,measurement,setting,value
{5-[4-(4-diisopropylcarbamoyl-2-methoxy-phenoxy)-butoxy]-benzo[d]isoxazole-3-ylcarbamoyl}-methyl-ammonium methane sulfonic acid salt [Example 1],T1/2,[1]; 50 mg/kg,2.29 h
same,T1/2,[1]; 100 mg/kg,5.58 h
same,area ratio of trabecular bone compared to the control group (in words),[2]; [3],excellently increased
same,therapeutic value (area ratio of the trabecular bone) compared with the compound of formula 2 (in words),[2]; [3],more distinguished therapeutic value than the compound of formula 2
same,"area ratio of trabecular bone, Femur Left",[2]; [4],34.87 ± 3.41*.^## volume %
same,"area ratio of trabecular bone, Tibia Left",[2]; [4],30.22 ± 6.31 volume %
same,"area ratio of trabecular bone, Tibia Right",[2]; [4],34.58 ± 14.52 volume %
same,"area ratio of trabecular bone, Femur Right","[2]; ovariectomized rats, PEG 100 solution, intramuscular injection, same concentration as formula 2 (100 mg per kg), 40 days",34.59 ± 8.77*.^# volume %
